Legend:
Assay in all cases: Transactivation assay (luciferase reporter, crossed curves vs reference agonist, Schild regression)
Assay type in all cases: cell-based
RARα = RARα (Homo sapiens, UniProt P10276); details: HeLa stable transfectants, ERE-βGlob-Luc-SV-Neo reporter and RARα ER-DBD-puro; 18 hours incubation; apparent Kd; read-out: RARα Kdapp
Description: (§1) The compounds according to the invention have retinoic acid receptor (RAR) agonist properties. This activity on RARα, β and γ receptors is measured in a transactivation test and quantified by means of the dissociation constant Kdapp (apparent).
(§2) The activation of receptors with an agonist (activator) in HeLa cells leads to the expression of a reporter gene, luciferase, which, in the presence of a substrate, generates light. The activation of the receptors can thus be measured by quantifying the luminescence produced after incubation of the cells in the presence of a reference agonist. Inhibitory products will displace the agonist from its site, thus preventing activation of the receptor. The activity is measured by quantifying the decrease in light produced. This measurement makes it possible to determine the inhibitory activity of the compounds according to the invention.
(§3) In this study, a constant is determined which represents the affinity of the molecules for the receptor. Since this value can fluctuate depending on the basal activity and the expression of the receptor, it is referred to as the Kd apparent (KdApp).
(§4) To determine this constant, “crossed curves” of the test product against a reference agonist, 4-[2-(5,5,8,8-tetramethyl-5,6,7,8-tetrahydronaphthalen-2-yl)propenyl]benzoic acid, are realized in 96-well plates. The test product is used at 10 concentrations and the reference agonist at 7 concentrations. In each well, the cells are in contact with a concentration of the test product and with a concentration of the reference agonist, 4-[2-(5,5,8,8-tetramethyl-5,6,7,8-tetrahydronaphthalen-2-yl)]propenyl]benzoic acid. […]
(§5) These crossed curves make it possible to determine the AC50 values (concentration at which 50% activation is observed) for the reference ligand at various concentrations of test product. These AC50 values are used to calculate the Schild regression by plotting a straight line corresponding to the Schild equation (“Quantitation in receptor pharmacology” Tervy P. Kenakin, Receptors and Channels, 2001, 7, 371-385). […]
(§6) The various dilutions of the test products, of the reference ligand (4-[2-(5,5,5,8-tetramethyl-5,6,7,8-tetrahydronaphthalen-2-yl)propenyl]benzoic acid), of the 100% control (100 nM 4-[2-(5,5,8,8-tetramethyl-5,6,7,8-tetrahydronaphthalen-2-yl)propenyl]benzoic acid) and of the 0% control (500 nM 4-{(E)-3-[4-(4-tert-butylphenyl)-5,5,8,8-tetramethyl-5,6,7,8-tetrahydronaphthalen-2-yl]-3-oxopropenyl}benzoic acid) are added in a proportion of 5 μl per well. […] After 5 minutes, the plates are read using a luminescence reader.

The chains behind the UniProt entries cited, without tags or fusion partners. Residues count along the entry.
UniProt P10276, 183-462 limits assumed: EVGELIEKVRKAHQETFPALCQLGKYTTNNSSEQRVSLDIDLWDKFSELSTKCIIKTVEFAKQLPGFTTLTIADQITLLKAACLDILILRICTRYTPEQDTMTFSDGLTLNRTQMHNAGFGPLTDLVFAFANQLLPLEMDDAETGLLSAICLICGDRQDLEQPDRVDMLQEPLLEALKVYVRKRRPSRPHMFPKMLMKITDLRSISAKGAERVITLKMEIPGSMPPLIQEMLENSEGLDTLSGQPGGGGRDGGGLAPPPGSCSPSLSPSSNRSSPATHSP
UniProt P10826, 154-455 limits assumed: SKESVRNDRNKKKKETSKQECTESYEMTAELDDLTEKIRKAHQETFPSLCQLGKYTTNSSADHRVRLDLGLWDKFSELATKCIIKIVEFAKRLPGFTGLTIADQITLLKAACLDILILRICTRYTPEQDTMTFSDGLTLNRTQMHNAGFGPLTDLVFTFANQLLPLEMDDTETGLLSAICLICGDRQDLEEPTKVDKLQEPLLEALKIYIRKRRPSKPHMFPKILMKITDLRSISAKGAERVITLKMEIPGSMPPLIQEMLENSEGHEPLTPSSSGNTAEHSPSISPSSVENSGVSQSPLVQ
UniProt P13631, 185-454 limits assumed: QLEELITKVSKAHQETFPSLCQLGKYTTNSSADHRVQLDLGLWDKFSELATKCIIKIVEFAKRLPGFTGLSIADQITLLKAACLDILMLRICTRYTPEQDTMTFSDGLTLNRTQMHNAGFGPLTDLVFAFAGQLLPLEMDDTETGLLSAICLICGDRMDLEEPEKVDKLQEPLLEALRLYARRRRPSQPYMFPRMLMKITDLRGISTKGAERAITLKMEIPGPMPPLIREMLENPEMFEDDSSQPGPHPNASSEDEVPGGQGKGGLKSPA

RARβ = RARβ (Homo sapiens, UniProt P10826); details: HeLa stable transfectants, ERE-βGlob-Luc-SV-Neo reporter and RARβ ER-DBD-puro; 18 hours incubation; apparent Kd; read-out: RARβ Kdapp
Description: as §1, §2, §3, §4, §5, §6

RARγ = RARγ (Homo sapiens, UniProt P13631); details: HeLa stable transfectants, ERE-βGlob-Luc-SV-Neo reporter and RARγ ER-DBD-puro; 18 hours incubation; apparent Kd; read-out: RARγ Kdapp
Description: as §1, §2, §3, §4, §5, §6

| Compound | Kd (RARα) [nM] | Kd (RARβ) [nM] | Kd (RARγ) [nM] |
| --- | --- | --- | --- |
| 4-{[tert-butyl(ethylisobutylamino)phenyl]hydroxyprop-1-ynyl}benzoic acid [Compound of example 2] | 3000 | 600 | 120 |
| CC(C)(C)c1cc(C(O)C#Cc2ccc(C(=O)O)cc2)ccc1N1CCCCC1 (stereo not shown) [Compound of example 5, 4-[3-(3-tert-butyl-4-piperidin-1-ylphenyl)-3-hydroxyprop-1-ynyl]benzoic acid] | – | – | 120 |

Source: US8163952B2, “RAR receptor agonist ligands and use thereof in human medicine and cosmetics” (Galderma Research & Development, priority 2007, dated 2012)
